Read-outs that look alike come from different tables or passages of the source.
Columns and labels:
Format in all cases: cell-based
[1] = target: T1, CFTR ΔF508 (Homo sapiens, UniProt P13569, DEL508-508); assay: Chronic TECC assay, primary bronchial epithelial cells of CF patients homozygous for CFTR ΔF508 (corrector, co-corrector and potentiator)
T1 construct: bronchial epithelial cells isolated from CF patients homozygous for the CFTR ΔF508 mutation; McGill University; Asterand; University of North Carolina hAEC-CF; host or cells: primary human bronchial epithelial cells from CF patients homozygous for ΔF508, differentiated at air-liquid interface
Protocol: Primary Bronchial Epithelial Cells Protocol
The TECC (Tranepithelial Clamp Circuit, EP-design) assay measures the functionality of the cystic fibrosis Transmembrane Conductance regulator (CFTR) by measuring the short circuit current (Isc) generated over the basolateral and apical membrane of lung epithelial cells. In TECC the transepithelial potential PD and transepithelial resistance (Rt) are measured in an open circuit and transformed to Ieq using Ohm's law. 24 Wells can be measured simultaneously allowing a higher throughput compared to Ussing chambers.
For this purpose, bronchial epithelial cells isolated from CF patients homozygous for the CFTR ΔF508 mutation (hAEC-CF, Epithelix, Geneva, Switzerland; McGill University, Montreal, Qc; Asterand, Detroit, Mich.; University of North Carolina, Chapel Hill, N.C.) are plated on type IV collagen-coated Transwell® supports (Costar).
For electrophysiological recording of the “chronic” experiments, the human airway epithelia are mounted in the TECC heating plate for electrophysiological measurement and kept at 37° C. The epithelia are bathed in a NaCl-Ringer solution (120 mM NaCl, 25 mM NaHCO3, 1.2 mM CaCl2, 1.2 mM MgCl2, 0.8 mM KH2PO4, 0.8 mM K2HPO4, pH 7.4, 5 mM glucose) on both the basolateral and apical sides. […]

Chains of the proteins cited; added tags and fusions are not shown. Lines headed by an entry give the natural chain unless they say otherwise; changes in a name come on top. A line that says so, or that is headed by a name, gives the form on record, which may keep a tag or linker.
UniProt P13569, with tags, fused parts or gaps DEL508-508: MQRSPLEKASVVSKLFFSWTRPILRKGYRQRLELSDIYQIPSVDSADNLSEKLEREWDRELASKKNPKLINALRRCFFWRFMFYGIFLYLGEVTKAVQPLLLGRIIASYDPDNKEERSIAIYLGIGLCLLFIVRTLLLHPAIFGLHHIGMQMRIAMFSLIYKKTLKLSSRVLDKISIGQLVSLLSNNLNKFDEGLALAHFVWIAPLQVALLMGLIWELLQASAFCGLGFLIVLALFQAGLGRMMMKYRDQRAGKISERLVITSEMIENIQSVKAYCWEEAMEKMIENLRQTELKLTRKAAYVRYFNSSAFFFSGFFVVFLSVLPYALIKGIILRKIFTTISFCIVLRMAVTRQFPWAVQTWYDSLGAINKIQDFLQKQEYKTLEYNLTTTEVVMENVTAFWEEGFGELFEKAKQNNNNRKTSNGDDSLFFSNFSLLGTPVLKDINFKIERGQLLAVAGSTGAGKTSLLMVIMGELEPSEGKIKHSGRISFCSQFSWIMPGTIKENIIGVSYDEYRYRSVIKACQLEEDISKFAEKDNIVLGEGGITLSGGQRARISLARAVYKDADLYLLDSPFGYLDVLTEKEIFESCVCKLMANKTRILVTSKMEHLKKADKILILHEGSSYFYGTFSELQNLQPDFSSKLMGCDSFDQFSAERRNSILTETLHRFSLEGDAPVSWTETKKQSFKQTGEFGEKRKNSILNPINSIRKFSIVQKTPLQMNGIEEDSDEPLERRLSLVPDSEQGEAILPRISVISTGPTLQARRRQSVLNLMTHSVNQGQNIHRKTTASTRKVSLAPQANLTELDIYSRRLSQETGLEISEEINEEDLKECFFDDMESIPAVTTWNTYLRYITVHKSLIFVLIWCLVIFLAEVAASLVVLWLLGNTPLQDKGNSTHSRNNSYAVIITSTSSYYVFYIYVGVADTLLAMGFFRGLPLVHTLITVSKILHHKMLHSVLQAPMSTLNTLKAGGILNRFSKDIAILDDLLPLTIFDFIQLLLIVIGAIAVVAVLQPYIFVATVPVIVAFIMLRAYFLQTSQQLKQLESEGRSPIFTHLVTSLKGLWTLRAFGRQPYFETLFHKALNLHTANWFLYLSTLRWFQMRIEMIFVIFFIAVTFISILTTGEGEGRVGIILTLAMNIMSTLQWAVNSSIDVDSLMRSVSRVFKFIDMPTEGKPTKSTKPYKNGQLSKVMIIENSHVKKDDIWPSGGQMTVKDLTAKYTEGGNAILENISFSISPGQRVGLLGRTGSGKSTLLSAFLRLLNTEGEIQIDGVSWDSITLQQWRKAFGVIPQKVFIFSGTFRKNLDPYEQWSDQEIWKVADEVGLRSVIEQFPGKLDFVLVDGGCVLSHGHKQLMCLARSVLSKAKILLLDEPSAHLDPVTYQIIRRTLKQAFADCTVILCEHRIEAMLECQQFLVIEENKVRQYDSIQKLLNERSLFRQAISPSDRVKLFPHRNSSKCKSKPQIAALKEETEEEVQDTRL

[2] = target: T2, ΔF508-CFTR (Homo sapiens, UniProt P13569, DEL508-508); assay: CFTR cell surface levels using HRP-tagged ΔF508-CFTR expressing CFBE cells, in the presence of a co-corrector; conditions: in the presence of 3 μM co-corrector
T2 construct: host or cells: CFBE41o-, doxycycline-inducible
Source text: (§1) Measuring CFTR Cell Surface Levels Using HRP-Tagged ΔF508-CFTR Expressing CFBE Cells
(§2) The HRP-tagged ΔF508-CFTR cell assay measures the expression of CFTR-ΔF508 at the plasma membrane. CFTR-ΔF508 has a folding defect leading to absence of protein at the plasma membrane. This assay is used to evaluate the capacity of compounds to increase the expression of CFTR-ΔF508 at the plasma membrane. The CFTR-ΔF508 is tagged with HRP (horse radish peroxidase enzyme) within the ECL4 (Extracellular loop 4) of CFTR (Phuan, P.-W. et al. Synergy-based small-molecule screen using a human lung epithelial cell line yields ΔF508-CFTR correctors that augment VX-809 maximal efficacy. Mol. Pharmacol. 86, 42-51 (2014)). When HRP-tagged ΔF508-CFTR is present at the plasma membrane, the HRP enzyme activity can be measured. The amount of CFTR-ΔF508 that can be rescued to the plasma membrane is correlated with the amount of functional enzyme that can be measured.
(§3) There are several ways to measure the capacity of compounds to rescue CFTR-ΔF508 to the plasma membrane; either compounds are evaluated on their own and the impact on plasma membrane levels is measured or compounds are evaluated in combination with a co-corrector, i.e. a compound that rescues CFTR-ΔF508 to the plasma membrane but rescue can be enhanced by addition of compounds due to a complementary mode of action.
Activity of Compounds in Combination with Co-Corrector:
For this purpose doxycycline-inducible ΔF508-CFTR-HRP expressing CFBE4lo− cells (obtained from Gergely Lukacs, McGill University) were maintained in MEM (Minimum Essential Medium, Gibco; 31095) supplemented with 10% fetal bovine serum (Hyclone; SV30160.03) under puromycin (3 μg/mL) and G418 selection (0.2 mg/mL). For compound testing, cells were seeded at 4000 cells/well in white 384-well plates (Greiner; 781080) in 50 μL of medium containing 0.5 μg/mL doxycycline and incubated for 68 hours at 37° C., 5% CO2. On day four, 10 μL of test compounds diluted in PBS (phosphate buffered saline) were added to the plates at a final DMSO concentration of 0.1%. In order to measure compound synergy with a co-corrector, 3 μM co-corrector (3-[(2R,4R)-4-({[1-(2,2-difluoro-1,3-benzodioxol-5-yl)cyclopropyl]carbonyl}amino)-7-methoxy-3,4-dihydro-2H-chromen-2-yl]benzoic acid) was added along with test compounds. All compound plates contained negative controls (DMSO) and positive controls (3 μM co-corrector). Cell plates were incubated at 33° C., 5% CO2 for 20 hours. On day five, the cells were washed five times with phosphate-buffered saline, and HRP activity was assayed by the addition of 50 μL/well of HRP substrate (SuperSignal™ West Pico Chemiluminescent Substrate, Thermo Scientific; 34080). After incubation for 15 minutes in the dark, the chemiluminescence was measured using a plate reader (EnVision®, Perkin Elmer). Raw data were normalized to percentage activity values using the equation: 100×(Sample−Negative control)/(Positive control−Negative Control).

[3] = target: T2, ΔF508-CFTR; assay: CFTR cell surface levels using HRP-tagged ΔF508-CFTR expressing CFBE cells, intrinsic corrector capacity; conditions: HRP-tagged ΔF508-CFTR expressing CFBE41o- cells; compound alone (intrinsic corrector capacity); 20 hours at 33° C.
Source text: as §1, §2, §3
Activity of Compounds for their Intrinsic Corrector Capacity:
For this purpose doxycycline-inducible ΔF508-CFTR-HRP expressing CFBE4lo− cells (obtained from Gergely Lukacs, McGill University) were maintained in MEM (Gibco; 31095) supplemented with 10% fetal bovine serum (Hyclone; SV30160.03) under puromycin (3 μg/mL) and G418 selection (0.2 mg/mL). For compound testing, cells were seeded at 4000 cells/well in white 384-well plates (Greiner; 781080) in 50 μL medium containing 0.5 μg/mL doxycycline and incubated for 68 hours at 37° C., 5% CO2. On day four, […] compounds diluted in PBS were added to the plates at a final DMSO concentration of 0.1%. All compound plates contained negative controls (DMSO) and positive controls ([…] corrector, 3-[(2R,4R)-4-({[1-(2,2-difluoro-1,3-benzodioxol-5-yl)cyclopropyl]carbonyl}amino)-7-methoxy-3,4-dihydro-2H-chromen-2-yl]benzoic acid). Cell plates were incubated at 33° C., 5% CO2 for 20 hours. On day five, the cells were washed five times with phosphate-buffered saline, and HRP activity was assayed by the addition of 50 μL/well of HRP substrate (SuperSignal™ West Pico Chemiluminescent Substrate, Thermo Scientific; 34080). After incubation for 15 minutes in the dark, chemiluminescence was measured using a plate reader (EnVision®, Perkin Elmer). Raw data were normalized to percentage activity values using the equation: 100×(Sample−Negative control)/(Positive control−Negative Control).

SMILES	EC50 [1] [nM]	EC50 [2] [nM]	EC50 [3] [nM]	EC50 ([1]; chronic TECC, AUC = full area under the curve upon forskolin stimulation, read-out: EC50 (nM) (AUC**))
CS(=O)(=O)NC(=O)c1cc(-c2ccc(N3CCC(C#N)CC3)nc2)c2c(C3CCC3)nn(-c3ccccc3)c2n1 [Compound 71, 4-[6-(4-cyanopiperidin-1-yl)pyridin-3-yl]-3-cyclobutyl-N-(methanesulfonyl)-1-phenyl-1H-pyrazolo[3,4-b]pyridine-6-carboxamide]	19.5			
COCCS(=O)(=O)NC(=O)c1cc(N2CCC(COC)CC2)c2c(C3CCC3)nn(-c3ccccc3)c2n1 [Compound 256, 3-cyclobutyl-N-(2-methoxyethanesulfonyl)-4-[4-(methoxymethyl)piperidin-1-yl]-1-phenyl-1H-pyrazolo[3,4-b]pyridine-6-carboxamide]		147	221	
O=C(NS(=O)(=O)N1CCOCC1)c1cc(N2CCC(N3CCOCC3)CC2)c2c(C3CCC3)nn(-c3ccccc3)c2n1 [Compound 383, 3-cyclobutyl-N-(morpholine-4-sulfonyl)-4-[4-(morpholin-4-yl)piperidin-1-yl]-1-phenyl-1H-pyrazolo[3,4-b]pyridine-6-carboxamide]		94.3	150	2
CCS(=O)(=O)NC(=O)c1cc(N2CCC(N3CCOCC3)CC2)c2c(C3CCC3)nn(-c3ccccc3)c2n1 [Compound 437, 3-cyclobutyl-N-(ethanesulfonyl)-4-[4-(morpholin-4-yl)piperidin-1-yl]-1-phenyl-1H-pyrazolo[3,4-b]pyridine-6-carboxamide]		156	257	
CN(C(=O)c1cc(N2CCC(N3CCOCC3)CC2)c2c(C3CCC3)nn(-c3ccccc3)c2n1)S(C)(=O)=O [Compound 656, 3-cyclobutyl-N-(methanesulfonyl)-N-methyl-4-[4-(morpholin-4-yl)piperidin-1-yl]-1-phenyl-1H-pyrazolo[3,4-b]pyridine-6-carboxamide]		71.5	99.6	
CCS(=O)(=O)N(C)C(=O)c1cc(N2CCC(N3CCOCC3)CC2)c2c(C3CCC3)nn(-c3ccccc3)c2n1 [Compound 658, 3-cyclobutyl-N-(ethanesulfonyl)-N-methyl-4-[4-(morpholin-4-yl)piperidin-1-yl]-1-phenyl-1H-pyrazolo[3,4-b]pyridine-6-carboxamide]		149	252	

From patent US10259810B2, “N-sulfonylated pyrazolo[3,4-b]pyridin-6-carboxamides and method of use” (AbbVie S.à.r.l., priority 2015, dated 2019)
